Measured values: patent US20130129725A1 (published 2013)

Chains of the proteins cited; added tags and fusions are not shown. Residues count along the entry.
UniProt Q86Z14, 53-996: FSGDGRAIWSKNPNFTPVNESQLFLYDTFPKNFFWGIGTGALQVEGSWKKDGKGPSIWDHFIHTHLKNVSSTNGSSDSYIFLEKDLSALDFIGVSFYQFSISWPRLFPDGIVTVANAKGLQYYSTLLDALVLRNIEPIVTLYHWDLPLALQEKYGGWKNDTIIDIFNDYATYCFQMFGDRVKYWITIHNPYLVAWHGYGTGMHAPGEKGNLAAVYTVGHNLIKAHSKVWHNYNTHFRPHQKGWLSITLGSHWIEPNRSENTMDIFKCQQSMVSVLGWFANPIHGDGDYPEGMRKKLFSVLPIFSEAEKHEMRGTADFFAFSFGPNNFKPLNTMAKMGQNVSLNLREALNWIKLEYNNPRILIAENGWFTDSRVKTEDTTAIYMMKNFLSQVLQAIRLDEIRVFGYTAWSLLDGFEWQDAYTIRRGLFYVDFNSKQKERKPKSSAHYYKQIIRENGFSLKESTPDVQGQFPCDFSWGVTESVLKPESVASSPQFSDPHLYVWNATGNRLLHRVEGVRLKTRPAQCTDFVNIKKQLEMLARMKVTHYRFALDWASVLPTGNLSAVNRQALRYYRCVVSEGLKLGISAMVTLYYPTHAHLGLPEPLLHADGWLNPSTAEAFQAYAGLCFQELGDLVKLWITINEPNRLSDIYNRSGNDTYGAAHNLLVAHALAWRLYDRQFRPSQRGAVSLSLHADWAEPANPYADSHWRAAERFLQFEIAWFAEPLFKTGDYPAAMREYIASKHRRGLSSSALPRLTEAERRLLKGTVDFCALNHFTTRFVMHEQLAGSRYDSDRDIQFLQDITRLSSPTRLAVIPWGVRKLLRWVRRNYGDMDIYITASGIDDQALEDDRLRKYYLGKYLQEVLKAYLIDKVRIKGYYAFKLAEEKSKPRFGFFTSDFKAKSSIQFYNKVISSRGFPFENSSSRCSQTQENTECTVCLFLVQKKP

Target: biotinylated hu-β-klotho (UniProt Q86Z14 53-996, biotinylated (sites not given))
Assay: Octet

- Kd: 0.129 nM
B1: 2G10 (antibody, V domains shown)
VH: QVQLVESGGGVVQPGRSLRLSCAASRFSFSRYGMHWVRQAPGKGLEWVAVIWFDGRNQYYADSVKGRFTISRDNSKNTLFLQMNSLRVEDTAVYYCARDHPVVGTSFDYWGQGTLVTVSS
VL: QSVLTQPPSVSAAPGQKVTVSCSGSSSNIGNNYVSWYQQLPGTAPKLLIYDNNKRPSGIPDRFSGSKSGTSATLGITGLQTGDEAEYYCGTWDSSLSVVAFGGGTKLTVLG
